Protein sequences, listed by entry. Tags and fused reporters are not part of them. Lines headed by an entry give the natural chain unless they say otherwise; changes in a name come on top.
UniProt P56524: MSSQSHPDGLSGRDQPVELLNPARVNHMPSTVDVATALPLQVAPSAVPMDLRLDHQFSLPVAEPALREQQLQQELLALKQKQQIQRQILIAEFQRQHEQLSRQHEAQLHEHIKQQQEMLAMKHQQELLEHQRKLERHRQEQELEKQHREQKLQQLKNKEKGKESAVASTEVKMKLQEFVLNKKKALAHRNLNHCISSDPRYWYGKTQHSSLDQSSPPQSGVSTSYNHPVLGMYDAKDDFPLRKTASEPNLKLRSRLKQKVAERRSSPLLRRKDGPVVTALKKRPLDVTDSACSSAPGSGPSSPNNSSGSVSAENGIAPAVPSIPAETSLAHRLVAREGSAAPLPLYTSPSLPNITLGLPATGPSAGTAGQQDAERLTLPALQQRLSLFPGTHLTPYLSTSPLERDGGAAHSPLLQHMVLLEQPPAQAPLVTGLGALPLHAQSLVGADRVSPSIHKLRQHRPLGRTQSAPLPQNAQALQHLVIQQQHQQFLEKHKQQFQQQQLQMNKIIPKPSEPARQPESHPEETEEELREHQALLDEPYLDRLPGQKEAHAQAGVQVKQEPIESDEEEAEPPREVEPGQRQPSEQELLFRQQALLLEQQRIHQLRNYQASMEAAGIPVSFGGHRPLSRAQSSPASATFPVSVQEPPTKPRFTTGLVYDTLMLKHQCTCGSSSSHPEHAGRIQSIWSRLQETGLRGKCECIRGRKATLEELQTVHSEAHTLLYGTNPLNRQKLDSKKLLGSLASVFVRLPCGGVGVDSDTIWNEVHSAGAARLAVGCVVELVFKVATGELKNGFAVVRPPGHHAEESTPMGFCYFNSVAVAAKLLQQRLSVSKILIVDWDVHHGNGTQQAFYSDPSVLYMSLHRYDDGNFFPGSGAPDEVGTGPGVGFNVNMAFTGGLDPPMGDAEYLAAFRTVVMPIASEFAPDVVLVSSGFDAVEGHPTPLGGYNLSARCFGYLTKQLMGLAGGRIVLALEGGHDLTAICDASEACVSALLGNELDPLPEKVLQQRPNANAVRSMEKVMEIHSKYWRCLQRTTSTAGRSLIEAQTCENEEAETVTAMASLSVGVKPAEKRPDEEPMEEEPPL

In ChEMBL document CHEMBL5096236, “Development of Fluorinated Peptoid-Based Histone Deacetylase (HDAC) Inhibitors for Therapy-Resistant Acute Leukemia” (J Med Chem, 2022):

Assays:
Histone deacetylase 4 = Histone deacetylase 4 (Homo sapiens, UniProt P56524); assay: Inhibition of recombinant human N-terminal GST-tagged/C-terminal His-tagged HDAC4 (627 to 1084 residues) expressed in baculovirus infected Sf9 insect cells using Boc-Lys (trifluoroacetyl)-AMC as substrate incubated for 90 mins by microplate reader analysis
Outline: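 HDAC4 enzyme in Tris-HCl pH 8.0 buffer with NaCl, KCl, MgCl₂ and 0.1 mg/mL BSA, max. 1% DMSO. 3-fold compound serial dilutions with Boc-Lys(Tfa)-AMC (42.86 μM solution) at 37 °C for 90 min. Trypsin (1.0 mg/mL) added, 30 min. […] Three-parameter log(inhibitor) fit. Duplicates, ≥2 experiments, mean ± SD. SI = IC50 HDAC4/IC50 HDAC6.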

[1] = biological target: T1, Protein deacetylase HDAC6 (Homo sapiens) (UniProt Q9UBN7); assay: (§1) Inhibition of recombinant human N-terminal GST-tagged HDAC6 (1 to 1215 residues) expressed in Sf9 insect cells using Z-Lys(Ac)-AMC as fluorogenic substrate incubated for 90 mins by microplate reader analysis
T1 sequence (whole entry): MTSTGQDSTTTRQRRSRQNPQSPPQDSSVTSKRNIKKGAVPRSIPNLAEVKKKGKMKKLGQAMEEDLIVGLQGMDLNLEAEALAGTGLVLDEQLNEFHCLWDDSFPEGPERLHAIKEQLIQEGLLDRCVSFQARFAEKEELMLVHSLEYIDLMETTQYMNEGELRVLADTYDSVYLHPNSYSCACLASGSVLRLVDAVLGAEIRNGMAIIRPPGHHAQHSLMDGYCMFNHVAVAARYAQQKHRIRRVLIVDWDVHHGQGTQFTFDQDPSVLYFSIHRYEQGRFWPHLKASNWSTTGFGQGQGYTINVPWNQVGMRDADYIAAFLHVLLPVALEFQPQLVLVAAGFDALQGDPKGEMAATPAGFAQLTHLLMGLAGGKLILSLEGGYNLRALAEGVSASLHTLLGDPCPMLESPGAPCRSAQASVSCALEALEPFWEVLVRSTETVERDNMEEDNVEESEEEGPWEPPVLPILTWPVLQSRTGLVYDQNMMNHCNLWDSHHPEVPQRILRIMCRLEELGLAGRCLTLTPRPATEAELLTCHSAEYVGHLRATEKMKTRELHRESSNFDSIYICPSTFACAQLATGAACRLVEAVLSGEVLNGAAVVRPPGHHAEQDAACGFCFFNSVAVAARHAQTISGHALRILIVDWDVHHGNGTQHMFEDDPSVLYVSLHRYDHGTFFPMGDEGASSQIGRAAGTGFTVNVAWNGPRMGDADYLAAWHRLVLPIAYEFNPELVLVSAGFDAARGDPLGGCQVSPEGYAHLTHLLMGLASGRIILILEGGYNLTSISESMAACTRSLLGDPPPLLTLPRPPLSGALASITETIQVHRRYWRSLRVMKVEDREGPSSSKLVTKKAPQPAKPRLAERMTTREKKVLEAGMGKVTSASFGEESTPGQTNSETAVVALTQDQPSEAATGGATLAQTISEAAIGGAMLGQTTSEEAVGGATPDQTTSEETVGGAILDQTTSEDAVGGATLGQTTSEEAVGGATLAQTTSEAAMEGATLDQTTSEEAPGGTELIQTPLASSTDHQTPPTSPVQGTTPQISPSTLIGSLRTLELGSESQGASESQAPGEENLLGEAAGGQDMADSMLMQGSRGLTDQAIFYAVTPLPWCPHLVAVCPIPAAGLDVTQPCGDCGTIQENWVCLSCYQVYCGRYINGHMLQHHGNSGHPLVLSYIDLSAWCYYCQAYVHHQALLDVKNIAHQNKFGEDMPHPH

[2] = biological target: T2, Protein deacetylase HDAC6 (Homo sapiens, UniProt Q9UBN7); assay: as §1
T2 sequence (Q9UBN7 whole entry): T1 sequence (whole entry)

IC50 (Histone deacetylase 4): 1.88 µM
IC5 [1]: 0.01 µM
IC50 [2]: 0.01 µM
SMILES: CN(C)c1ccc(C(=O)N(CC(=O)NCc2ccccc2)Cc2ccc(C(=O)NO)cc2F)cc1
